Assay results from patent publication US10654836B2, “Pyrimidine derivative, method for preparing same and use thereof in medicine” (Zhejiang Hisun Pharmaceutical Co., Ltd., priority 2016, dated 2020).

Key:
[1] = test system: hepatocellular carcinoma tumor cells Huh7; experiment: Huh7 tumor cell proliferation inhibition (CCK-8); assay type: cell-based; settings: Homo sapiens, Huh-7; 72 hours culture
Method: The following method was used to determine the effect of the compounds of the present invention against tumor cell proliferation. For the FGFR4 subtype, hepatocellular carcinoma tumor cells Huh7 (purchased from the Cell Resource Center of Shanghai Institutes for Biological Sciences, Chinese Academy of Sciences) were used to determine the inhibition against the activity of hepatocellular carcinoma tumor cells. Huh7 cells were cultured in a DMEM medium containing 10% of fetal bovine serum, 100 U of penicillin and 100 μg/mL of streptomycin. Cultured in an incubator of 37° C., 5% CO2. Hepatocellular carcinoma tumor cell activity was measured by using a kit of Cell Counting Kit-8 (Dojindo, Dojindo Molecular Technologies, Inc).
The experimental method was carried out according to the steps of the kit instructions, and is briefly described as follows: the test compound was first dissolved in DMSO to prepare a stock solution, and then gradiently diluted with the corresponding medium of the cells to prepare a test sample, and the final concentration of the compound was in the range of 30 μM to 0.01 nM. Tumor cells in the logarithmic phase were seeded into 96-well cell culture plates at a suitable density, cultured in an incubator of 37° C., 5% CO2 overnight, then test compound samples were added and continued to culture the cells for 72 hours. After completion of the culture, a suitable volume of CCK-8 test solution was added to each well, and incubated at 37° C. for 1 to 4 hours, and then the absorbance values of the respective wells at 450 nM were read on a microplate reader.

[2] = test system: hepatocellular carcinoma tumor cell Huh7 xenografts; experiment: Growth inhibition of Huh7 xenografts in tumor-bearing BALB/c nude mice; assay type: in vivo; settings: for Relative tumor growth rate T/C (%): bid
Method: On day 0, Huh7 cells were cultured in DMEM medium containing 10% of fetal bovine serum, 100 U of penicillin, and 100 μg/mL of streptomycin. And cultured in an incubator of 37° C., 5% CO2.
Each mouse was inoculated subcutaneously in the right axilla with 150 μL of cell suspension (5.0×10^6 cells/mouse) under sterile conditions. On day 12 after inoculation, when the tumor grew to a volume of 200-300 mm^3, mice with similar tumor volume and good shape were selected (the shape was as single spherical as possible, no irregular shape or multiple tumors gathered together) and divided into 5 groups, each group had 9 mice.
Each group of animals was administrated (intraperitoneal injection (ip) or oral administration (po)) a test substance twice a day (bid) at a fix time per day according to the body weight of the animals. The first dose was administered on the day of grouping ([…]), and continued for 22 days, the body weight of the animals was recorded daily.
The formation of tumor in the inoculated part of each group of animals was observed. The long diameter (Y) and short diameter (X) of the tumor nodules were measured twice a week using vernier calipers and calculated according to the following formula: Volume of tumor nodules(V): V=(X^2Y)/2.
Evaluation index of antitumor activity: tumor growth inhibition rate TGI (%), relative tumor proliferation rate T/C (%).
The relative tumor volume (RTV) is calculated as: RTV=100×TVt/TVinitial
wherein, TVinitial is the tumor volume measured at the time of grouping administration; TVt is the tumor volume at each measurement during administration.
The calculation formula for the relative tumor proliferation rate (% T/C) is: % T/C=100%×(RTVT/RTVC)
wherein, RTVT represents RTV of the treatment group; RTVC represents RTV of the solvent control group.
wherein, TVt(T) represents the tumor volume at each measurement in the treatment group; TVinitial(T) represents the tumor volume of the treatment group at the time of grouping administration; TVt(C) represents the tumor volume at each measurement in the solvent control group; TVinitial(C) represents the tumor volume of the solvent control group at the time of grouping administration.
wherein, WC represents the tumor weight of the control group; WT represents the tumor weight of the treatment group.

**Q.** Which results are given for C=CC(=O)Nc1cc(N2CCN(CC)C3(CC3)C2)ccc1Nc1cc(N(C)C(=O)Nc2c(Cl)c(OC)cc(OC)c2Cl)ncn1 [Example 5, N-(2-((6-(3-(2,6-Dichloro-3,5-dimethoxyphenyl)-1-methylureido)pyrimidin-4-yl)amino)-5-(4-ethyl-4,7-diazaspiro[2.5]octan-7-yl)phenyl)acrylamide]?
**A.** IC50 [1]: 12 nM; Relative tumor growth rate T/C (%) ([2]; 25 mg/kg IP, Day 13 after inoculation): 100%; Relative tumor growth rate T/C (%) ([2]; 25 mg/kg IP, Day 16 after inoculation): 91%; Relative tumor growth rate T/C (%) ([2]; 25 mg/kg IP, Day 20 after inoculation): 86%; Relative tumor growth rate T/C (%) ([2]; 25 mg/kg IP, Day 23 after inoculation): 78%; Relative tumor growth rate T/C (%) ([2]; 25 mg/kg IP, Day 27 after inoculation): 76%; Relative tumor growth rate T/C (%) ([2]; 25 mg/kg IP, Day 30 after inoculation): 79%; Relative tumor growth rate T/C (%) ([2]; 25 mg/kg IP, Day 34 after inoculation): 85%; Relative tumor growth rate T/C (%) ([2]; 50 mg/kg IP, Day 13 after inoculation): 100%; Relative tumor growth rate T/C (%) ([2]; 50 mg/kg IP, Day 16 after inoculation): 80%; Relative tumor growth rate T/C (%) ([2]; 50 mg/kg IP, Day 20 after inoculation): 65%; Relative tumor growth rate T/C (%) ([2]; 50 mg/kg IP, Day 23 after inoculation): 48%; Relative tumor growth rate T/C (%) ([2]; 50 mg/kg IP, Day 27 after inoculation): 44%; Relative tumor growth rate T/C (%) ([2]; 50 mg/kg IP, Day 30 after inoculation): 49%; Relative tumor growth rate T/C (%) ([2]; 50 mg/kg IP, Day 34 after inoculation): 60%; Relative tumor growth rate T/C (%) ([2]; 300 mg/kg PO, Day 13 after inoculation): 100%; Relative tumor growth rate T/C (%) ([2]; 300 mg/kg PO, Day 16 after inoculation): 61%; Relative tumor growth rate T/C (%) ([2]; 300 mg/kg PO, Day 20 after inoculation): 25%; Relative tumor growth rate T/C (%) ([2]; 300 mg/kg PO, Day 23 after inoculation): 16%; Relative tumor growth rate T/C (%) ([2]; 300 mg/kg PO, Day 27 after inoculation): 13%; Relative tumor growth rate T/C (%) ([2]; 300 mg/kg PO, Day 30 after inoculation): 9.4%; Relative tumor growth rate T/C (%) ([2]; 300 mg/kg PO, Day 34 after inoculation): 9.0%; growth inhibitory effect against the in vivo tumor model (in words) ([2]; mouse, in vivo): significant growth inhibitory effect; in vivo activity compared with Example 108 of WO2015057938 (in words) ([2]; mouse, in vivo): superior to that of the compound of Example 108 of WO2015057938

**Q.** C=CC(=O)Nc1cc(N2CCC3(CCN(CC)C3)C2)ccc1Nc1cc(N(C)C(=O)Nc2c(Cl)c(OC)cc(OC)c2Cl)ncn1 (centres unmarked) [Example 6, N-(2-((6-(3-(2,6-Dichloro-3,5-dimethoxyphenyl)-1-methylureido)pyrimidin-4-yl)amino)-5-(7-ethyl-2,7-diazaspiro[4.4]nonan-2-yl)phenyl)acrylamide] was tested. Which IC50 [1] did it give?
**A.** 10 nM

**Q.** Which IC50 [1] does the source give for C=CC(=O)Nc1cc(N2CCC(N(C)C)CC2)ccc1Nc1cc(N(C)C(=O)Nc2c(Cl)c(OC)cc(OC)c2Cl)ncn1 [Example 7, N-(2-((6-(3-(2,6-Dichloro-3,5-dimethoxyphenyl)-1-methylureido)pyrimidin-4-yl)amino)-5-(4-(dimethylamino)piperidin-1-yl)phenyl)acrylamide] here?
**A.** 4.8 nM
